Test results: PubChem BioAssay AID588690 (Broad Institute, 2011)
The list shows a part of the results. Active and inactive are the calls of the source.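 How the source made its calls: active means highest replicate activation at or above 34% and every replicate reaching that threshold; inconclusive means meets only one of the two criteria; inactive means meets neither criterion.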

Protein sequences, listed by entry. Tags and fused reporters are not part of them. Lines headed by an entry give the natural chain unless they say otherwise; changes in a name come on top.
UniProt P13346: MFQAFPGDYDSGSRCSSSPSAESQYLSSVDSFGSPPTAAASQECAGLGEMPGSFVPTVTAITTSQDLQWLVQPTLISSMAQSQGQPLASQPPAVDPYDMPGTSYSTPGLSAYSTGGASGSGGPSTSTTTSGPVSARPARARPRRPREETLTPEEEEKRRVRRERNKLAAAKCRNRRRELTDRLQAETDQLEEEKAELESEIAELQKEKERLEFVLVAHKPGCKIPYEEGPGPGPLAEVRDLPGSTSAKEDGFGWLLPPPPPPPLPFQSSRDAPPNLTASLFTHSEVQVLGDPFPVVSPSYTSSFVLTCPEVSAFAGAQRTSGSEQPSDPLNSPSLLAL

The molecules below were run against Protein FosB (Mus musculus) (UniProt P13346) (assay: enhancers of delta FosB homodimer–AP-1 oligo binding – biochemical, fluorescence polarization, TAMRA-CDK5 oligo, cherry-picked samples, confirmation (AID 588690;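 further: higher polarization means more probe DNA bound by delta FosB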)). Conditions: purified delta FosB, at 24.9 µM, hits give high values, normalised: neutral wells 0, positive control 100.
`CCC1=CC2Cc3nc4ccc(Cl)cc4c(N)c3C(C1)C2` (stereo unspecified) was tested, and the activation was inactive: 10.1%.
